From patent US7893064B2, “Hydrazone derivatives as kinase inhibitors” (Janssen Pharmaceutica NV, priority 2006, dated 2011)

Amino acid sequences for entries named in this document (tags omitted). Residues count along the entry.
UniProt P00533, 669-1210 limits assumed: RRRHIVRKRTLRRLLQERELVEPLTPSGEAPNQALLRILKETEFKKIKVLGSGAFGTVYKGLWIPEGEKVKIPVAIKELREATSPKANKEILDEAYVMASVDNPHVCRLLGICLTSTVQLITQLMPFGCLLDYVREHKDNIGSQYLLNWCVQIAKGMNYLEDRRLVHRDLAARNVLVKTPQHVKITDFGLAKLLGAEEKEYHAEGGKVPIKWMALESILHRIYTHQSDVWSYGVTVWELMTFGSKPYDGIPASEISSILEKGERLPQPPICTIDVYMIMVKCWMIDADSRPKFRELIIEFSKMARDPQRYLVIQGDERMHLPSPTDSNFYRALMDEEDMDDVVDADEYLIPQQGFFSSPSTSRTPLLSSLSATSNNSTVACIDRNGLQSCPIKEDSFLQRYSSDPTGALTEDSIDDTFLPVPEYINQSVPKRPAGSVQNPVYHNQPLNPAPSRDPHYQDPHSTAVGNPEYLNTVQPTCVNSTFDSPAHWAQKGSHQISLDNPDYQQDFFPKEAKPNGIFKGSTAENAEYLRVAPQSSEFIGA

Biological target: T1, EGFR kinase (GST fusion of intracellular portion of EGFR, NM_005228) (Homo sapiens, UniProt P00533)
T1 construct: The intracellular portion of EGFR started at nucleotide 2189 (corresponding to amino acid 667) and ended at the termination codon; made in house; host or cells: Sf9 insect cells (baculovirus)
Experiment: EGFR Kinase Assay
Assay type: biochemical
Details: GSTEGFR, ATP 5 μM, biotinylated polyGluTyr, 33P Flashplate; read-out: EGFR Inhibition (%) IC50
Excerpt: The portion was PCR amplified with primers that added the lambda attB sequences to each end, recombined into an entry vector, then into a GST destination vector (as described in Gateway Technologies Manual by Invitrogen Corporation, Carlsbad, Calif.).
The destination vector was recombined in the DH10BAC strain of bacteria to produce a bacmid. The bacmid was transfected into Sf9 cells and the supernatant containing the baculovirus was collected. The GSTEGFR protein was purified using large cultures of Sf9 cells infected with stock virus. After an appropriate period of time, the cells were collected and lysed. The GSTEGFR was then purified from the lysate on Glutathione-Sepharose columns (as described by Amersham Biosciences, Buckinghamshire, United Kingdom).
The free biotin was separated from the biotinylated polyGluTyr on a gel filtration column. […]
The plates were incubated at 30° C. for 1 hr with shaking. […] The plates were then sealed and read on the TopCount scintillation counter.
Test compounds were assayed in triplicate at 16 concentrations at half-log dilutions starting at 200 uM. A maximum and minimum signal for the assay was determined on each plate. The percent inhibition of a test compound was calculated according to the formula […]

Work on `Nc1ncnc(Nc2ccc3c(cnn3Cc3cccc(F)c3)c2)c1C=NN1CCCCC1` [Cpd 3, N-[1-(3-fluoro-benzyl)-1H-indazol-5-yl]-5-(piperidin-1-yliminomethyl)-pyrimidine-4,6-diamine] yielded an IC50 of 29.8 nM.
